Here are results for 3 compounds from ChEMBL document CHEMBL1130150, “Conformationally restricted analogues of trimethoprim: 2,6-diamino-8-substituted purines as potential dihydrofolate reductase inhibitors from Pneumocystis carinii and Toxoplasma gondii” (J Med Chem, 1997).

Assay [1] has as its target T1, Dihydrofolate reductase (Pneumocystis carinii, UniProt P16184).
T1 sequence (P16184 whole entry): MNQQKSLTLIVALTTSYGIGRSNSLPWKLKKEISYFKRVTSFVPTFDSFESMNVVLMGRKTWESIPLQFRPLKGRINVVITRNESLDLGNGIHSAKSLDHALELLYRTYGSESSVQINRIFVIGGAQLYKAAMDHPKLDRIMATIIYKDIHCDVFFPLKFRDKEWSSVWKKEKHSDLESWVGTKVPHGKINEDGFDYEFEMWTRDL

For assay [2], the target named is T2, Dihydrofolate reductase (Rattus norvegicus, UniProt Q920D2).
T2 sequence (Q920D2 whole entry): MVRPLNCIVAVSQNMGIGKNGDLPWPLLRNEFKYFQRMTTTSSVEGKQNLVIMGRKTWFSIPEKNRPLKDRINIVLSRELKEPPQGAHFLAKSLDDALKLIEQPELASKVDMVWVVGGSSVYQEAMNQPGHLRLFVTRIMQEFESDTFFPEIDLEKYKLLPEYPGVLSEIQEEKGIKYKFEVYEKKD

With `COc1cc(OC)cc(-c2nc3nc(N)nc(N)c3[nH]2)c1`, on Dihydrofolate reductase [1], the IC50 came to 9 µM. This counts as single-digit micromolar. As for `Nc1nc(N)c2nc(C3c4ccccc4-c4ccccc43)[nH]c2n1`, the concentration for half-maximal inhibition (IC50) on Dihydrofolate reductase [2] came out at 29.8 µM. At Dihydrofolate reductase [1], `Nc1nc(N)c2nc(Cc3ccccc3)[nH]c2n1` registered an IC50 of 9.8 µM.

The IC50 is the midpoint of a concentration-inhibition curve. Read a low IC50 as greater potency in that assay.
